Laboratory results as given in paper PMC7436049, “Combining In Silico and In Vitro Studies to Evaluate the Acetylcholinesterase Inhibitory Profile of Different Accessions and the Biomarker Triterpenes of Centella asiatica” (Molecules, 2020).

By UniProt entry, the sequences of proteins in these tests, tags left out. Residues count along the entry.
UniProt O42275, 24-633: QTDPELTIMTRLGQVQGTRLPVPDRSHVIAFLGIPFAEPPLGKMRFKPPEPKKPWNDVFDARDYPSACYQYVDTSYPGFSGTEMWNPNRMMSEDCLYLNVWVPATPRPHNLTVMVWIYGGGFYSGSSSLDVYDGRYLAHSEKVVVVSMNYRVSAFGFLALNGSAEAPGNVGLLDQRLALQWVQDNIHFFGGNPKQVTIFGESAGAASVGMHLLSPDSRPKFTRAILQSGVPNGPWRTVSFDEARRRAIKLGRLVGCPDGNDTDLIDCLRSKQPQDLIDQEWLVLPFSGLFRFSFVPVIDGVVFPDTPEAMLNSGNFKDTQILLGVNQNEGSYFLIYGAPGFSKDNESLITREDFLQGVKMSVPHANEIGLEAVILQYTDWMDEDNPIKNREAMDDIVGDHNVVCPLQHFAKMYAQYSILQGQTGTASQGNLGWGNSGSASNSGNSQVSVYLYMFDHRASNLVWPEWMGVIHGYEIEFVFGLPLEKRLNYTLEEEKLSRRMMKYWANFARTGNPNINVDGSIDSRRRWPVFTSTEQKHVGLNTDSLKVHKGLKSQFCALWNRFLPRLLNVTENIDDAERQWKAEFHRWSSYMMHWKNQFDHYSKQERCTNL

Target: T1, acetylcholinesterase from electrophorus electricus (Electrophorus electricus, UniProt O42275)
T1 construct: purchased Sigma–Aldrich (St. Louis, MO, USA)
Assay type: biochemical
Details: Ellman's method, 412 nm, mean ± SEM, triplicates
Procedure: All solvents were HPLC grade, purchased from Merck (Darmstadt, Germany). […] Sodium monobasic […] were purchased from Merck (Darmstadt, Germany), and acetylcholinesterase from electrophorus electricus, 5,5′-Dithiobis (2-nitrobenzoic acid), and […] were obtained from Sigma–Aldrich (St. Louis, MO, USA).
The AChE inhibitory activity was evaluated using Ellman’s method, as reported previously. Each sample (20 µL of 5 mg/mL in DMSO) was dispensed in triplicate into a 96-well microplate and mixed with 190 µL of DTNB, 20 µL of substrate (ATCI). The control wells contained 2% of DMSO instead of the extract. The enzymatic activity was measured at 412 nm every 30 s intervals for 3 min. The buffer solution was used as negative control.
The percentage inhibition (%I) of each sample and the positive control (physostigmine) was calculated using the formula:%I: [(Ac − As)/(Ac)] × 100(1) where (%I): Percentage inhibition • Ac: Absorbance of negative control • As: Absorbance of sample
The experiments were expressed as the mean ± standard error of the mean (SEM) in triplicates.

asiaticoside
AChE inhibitory activity, IC50 Values: 59.13 ± 0.18 µg/mL
